How the values were obtained:
Conditions in all cases: equilibrium dissociation constant, class symbols
RIP3 = target: T1, RIP3 (Homo sapiens, UniProt Q9Y572); test: KINOMEscan binding assay, RIP3
T1 construct: purchased DiscoverX (KINOMEscan service); host or cells: E. coli BL21-derived (T7 phage) or HEK293

Sequences of proteins named here, by UniProt entry; tags and fusion partners are left off. A change or cut given only in a name is not applied to a line headed by its entry.
UniProt Q9Y572: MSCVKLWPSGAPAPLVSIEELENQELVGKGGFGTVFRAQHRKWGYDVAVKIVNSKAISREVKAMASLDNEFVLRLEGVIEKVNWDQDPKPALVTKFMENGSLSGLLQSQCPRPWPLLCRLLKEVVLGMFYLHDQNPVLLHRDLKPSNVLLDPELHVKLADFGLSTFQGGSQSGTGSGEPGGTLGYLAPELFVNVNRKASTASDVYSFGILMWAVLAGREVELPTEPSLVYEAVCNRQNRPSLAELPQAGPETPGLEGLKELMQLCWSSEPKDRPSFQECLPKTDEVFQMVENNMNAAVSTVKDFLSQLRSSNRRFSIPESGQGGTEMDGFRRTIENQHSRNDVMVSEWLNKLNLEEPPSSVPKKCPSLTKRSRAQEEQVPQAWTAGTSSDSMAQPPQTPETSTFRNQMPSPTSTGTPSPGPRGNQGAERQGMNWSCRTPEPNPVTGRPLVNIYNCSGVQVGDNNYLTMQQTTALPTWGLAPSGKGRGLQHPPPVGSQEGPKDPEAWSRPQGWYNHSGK

RIP1 = target: T2, RIP1 (Homo sapiens, UniProt Q13546); test: KINOMEscan binding assay, RIP1
T2 construct: purchased DiscoverX (KINOMEscan service); host or cells: E. coli BL21-derived (T7 phage) or HEK293
T2 sequence (Q13546 1-671): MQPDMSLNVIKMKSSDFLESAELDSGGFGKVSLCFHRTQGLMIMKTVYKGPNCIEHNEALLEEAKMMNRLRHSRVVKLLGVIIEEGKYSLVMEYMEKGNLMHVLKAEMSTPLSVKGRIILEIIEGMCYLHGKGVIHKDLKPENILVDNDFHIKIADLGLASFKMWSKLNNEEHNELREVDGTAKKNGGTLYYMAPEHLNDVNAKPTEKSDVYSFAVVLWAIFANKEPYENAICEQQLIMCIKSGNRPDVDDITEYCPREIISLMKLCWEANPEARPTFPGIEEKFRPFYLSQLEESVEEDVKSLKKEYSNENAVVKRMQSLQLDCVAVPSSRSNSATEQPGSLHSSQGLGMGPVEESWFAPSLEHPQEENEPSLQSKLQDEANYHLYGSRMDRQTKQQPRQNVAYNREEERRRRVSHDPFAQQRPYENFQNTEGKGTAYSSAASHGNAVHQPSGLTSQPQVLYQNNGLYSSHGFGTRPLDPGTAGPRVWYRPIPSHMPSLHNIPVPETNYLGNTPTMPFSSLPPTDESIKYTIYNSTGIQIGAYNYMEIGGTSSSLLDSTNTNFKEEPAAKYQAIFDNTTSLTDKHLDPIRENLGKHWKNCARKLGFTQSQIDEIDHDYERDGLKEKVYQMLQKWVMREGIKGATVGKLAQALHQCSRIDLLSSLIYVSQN

MLKL (full length) = target: T3, MLKL (full length) (Homo sapiens, UniProt Q8NB16); test: KINOMEscan binding assay, MLKL
T3 construct: purchased DiscoverX (KINOMEscan service); host or cells: E. coli BL21-derived (T7 phage) or HEK293
T3 sequence (Q8NB16 1-471): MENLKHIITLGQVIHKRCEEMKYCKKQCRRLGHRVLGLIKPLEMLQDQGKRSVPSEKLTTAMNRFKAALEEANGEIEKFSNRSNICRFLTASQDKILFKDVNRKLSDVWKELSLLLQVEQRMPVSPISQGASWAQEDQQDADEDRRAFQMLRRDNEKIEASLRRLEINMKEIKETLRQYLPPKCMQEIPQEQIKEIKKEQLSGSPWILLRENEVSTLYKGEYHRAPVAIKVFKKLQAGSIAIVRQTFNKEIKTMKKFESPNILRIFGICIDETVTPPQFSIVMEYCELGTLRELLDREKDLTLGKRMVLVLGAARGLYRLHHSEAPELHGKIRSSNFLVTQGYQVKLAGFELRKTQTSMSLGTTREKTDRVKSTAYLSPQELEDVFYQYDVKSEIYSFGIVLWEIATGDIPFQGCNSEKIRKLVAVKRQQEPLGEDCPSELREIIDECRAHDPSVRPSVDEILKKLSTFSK

C[C@H](Oc1cc(-c2n[nH]c(Nc3cnc(C4CC4)cn3)c2C(N)=O)ccc1NS(=O)(=O)C(F)F)c1ccc(F)cc1 [Compound 316, (S)-5-((5-cyclopropylpyrazin-2-yl)amino)-3-(4-((difluoromethyl)sulfonamido)-3-(1-(4-fluorophenyl)ethoxy)phenyl)-1H-pyrazole-4-carboxamide] was tested, and the Kd (RIP3) was > 30 µM, the Kd (RIP1) was > 30 µM and the Kd (MLKL (full length)) was < 0.01 µM.

CCS(=O)(=O)Nc1ccc(-c2n[nH]c(Nc3cnccn3)c2C(N)=O)cc1OCCc1ccccc1F [Compound 211, 3-(4-(ethylsulfonamido)-3-(2-fluorophenethoxy)phenyl)-5-(pyrazin-2-ylamino)-1H-pyrazole-4-carboxamide] was tested, and the Kd (RIP3) was > 30 µM, the Kd (RIP1) was > 30 µM and the Kd (MLKL (full length)) was < 0.01 µM.

For CCS(=O)(=O)Nc1ccc(-c2n[nH]c(Nc3cc(C(F)(F)F)ccn3)c2C(N)=O)cc1 [Compound 85, 3-(4-(ethylsulfonamido)phenyl)-5-((4-(trifluoromethyl)pyridin-2-yl)amino)-1H-pyrazole-4-carboxamide], the Kd (RIP3) was 1 to 30 µM, the Kd (RIP1) was > 30 µM and the Kd (MLKL (full length)) was 0.01 to 1 µM.

With C[C@@H](Oc1cc(NS(=O)(=O)CC(F)(F)F)ccc1-c1n[nH]c(Nc2cnccn2)c1C(N)=O)c1ccc(F)cc1 [Compound 254, 3-{2-[(1R)-1-(4-fluorophenyl)ethoxy]-4-(2,2,2-trifluoroethanesulfonamido)phenyl}-5-[(pyrazin-2-yl)amino]-1H-pyrazole-4-carboxamide] the Kd (RIP3) was > 30 µM, the Kd (RIP1) was > 30 µM and the Kd (MLKL (full length)) was 0.01 to 1 µM.

For NC(=O)c1c(-c2ccc(NS(=O)(=O)C(F)F)c(OCc3nccs3)c2)n[nH]c1Nc1cnccn1 [Compound 275, 3-(4-((difluoromethyl)sulfonamido)-3-(thiazol-2-ylmethoxy)phenyl)-5-(pyrazin-2-ylamino)-1H-pyrazole-4-carboxamide], the Kd (RIP3) was > 30 µM, the Kd (RIP1) was > 30 µM and the Kd (MLKL (full length)) was < 0.01 µM.

For CCS(=O)(=O)Nc1ccc(-c2n[nH]c(Nc3cnc(C(C)(C)C)cn3)c2C(N)=O)cc1 [Compound 181, 5-((5-(tert-butyl)pyrazin-2-yl)amino)-3-(4-(ethylsulfonamido)phenyl)-1H-pyrazole-4-carboxamide], the Kd (RIP3) was 1 to 30 µM, the Kd (RIP1) was > 30 µM and the Kd (MLKL (full length)) was < 0.01 µM.

With CCS(=O)(=O)Nc1ccc(-c2n[nH]c(Nc3cnccn3)c2C(N)=O)cc1OC1(c2ccc(F)cc2)CC1 [Compound 248, 3-{4-ethanesulfonamido-3-[1-(4-fluorophenyl)cyclopropoxy]phenyl}-5-[(pyrazinyl)amino]-1H-pyrazole-4-carboxamide] the Kd (RIP3) was > 30 µM, the Kd (RIP1) was > 30 µM and the Kd (MLKL (full length)) was < 0.01 µM.

In the case of CCS(=O)(=O)Nc1ccc(-c2n[nH]c(Nc3ccnc(OC)c3)c2C(N)=O)cc1OCc1ccc(F)cc1 [Compound 18, 3-(4-(ethylsulfonamido)-3-((4-fluorobenzyl)oxy)phenyl) 5-((2-methoxypyridin-4-yl)amino)-1H-pyrazole-4 carboxamide], the Kd (RIP3) is reported as 1 to 30 µM, the Kd (RIP1) is reported as > 30 µM and the Kd (MLKL (full length)) is reported as < 0.01 µM.

In the case of CCS(=O)(=O)Nc1ccc(-c2n[nH]c(Nc3cnccn3)c2C(N)=O)cc1OCc1cccc(OC(F)(F)F)c1 [Compound 214, 3-(4-(ethylsulfonamido)-3-((3-(trifluoromethoxy)benzyl)oxy)phenyl)-5-(pyrazin-2-ylamino)-1H-pyrazole-4-carboxamide], the Kd (RIP3) is reported as > 30 µM, the Kd (RIP1) is reported as > 30 µM and the Kd (MLKL (full length)) is reported as 0.01 to 1 µM.

For NC(=O)c1c(-c2ccc(NS(=O)(=O)c3ccc(C(F)(F)F)cc3)cc2)n[nH]c1Nc1cnccn1 [Compound 79, 5-(pyrazin-2-ylamino)-3-(4-((4-(trifluoromethyl)phenyl)sulfonamido)phenyl)-1H-pyrazole-4-carboxamide], the Kd (RIP3) was > 30 µM, the Kd (RIP1) was > 30 µM and the Kd (MLKL (full length)) was 0.01 to 1 µM.

For NC(=O)c1c(-c2ccc(NS(=O)(=O)CCC(F)(F)F)cc2)n[nH]c1Nc1cnccn1 [Compound 72, 5-(pyrazin-2-ylamino)-3-(4-((3,3,3-trifluoropropyl)sufonamido)phenyl)-1H-pyrazole-4-carboxamide], the Kd (RIP3) was > 30 µM, the Kd (RIP1) was > 30 µM and the Kd (MLKL (full length)) was < 0.01 µM.

In the case of C[C@H](Oc1cc(-c2c(C(N)=O)c(Nc3cnccn3)nn2C)ccc1NS(=O)(=O)C(F)F)c1ccc(F)cc1 [Compound 253, 5-[4-(difluoromethanesulfonamido)-3-[(1S)-1-(4-fluorophenyl)ethoxy]phenyl]-1-methyl-3-[(pyrazin-2-yl)amino]-1H-pyrazole-4-carboxamide], the Kd (RIP3) is reported as > 30 µM, the Kd (RIP1) is reported as > 30 µM and the Kd (MLKL (full length)) is reported as < 0.01 µM.

In the case of Cc1cnc(Nc2[nH]nc(-c3ccc(NS(=O)(=O)C(F)F)c(OC4(c5ccc(F)cc5)CC4)c3)c2C(N)=O)cn1 [Compound 290, 3-(4-((difluoromethyl)sulfonamido)-3-(1-(4-fluorophenyl)cyclopropoxy)phenyl)-5-((5-methylpyrazin-2-yl)amino)-1H-pyrazole-4-carboxamide], the Kd (RIP3) is reported as > 30 µM, the Kd (RIP1) is reported as > 30 µM and the Kd (MLKL (full length)) is reported as < 0.01 µM.

For NC(=O)c1c(-c2ccc(NS(=O)(=O)CC(F)(F)F)c(OCc3ccc(F)c(F)c3)c2)n[nH]c1Nc1ccccn1 [Compound 160, 3-(3-((3,4-difluorobenzyl)oxy)-4-((2,2,2-trifluoroethyl)sulfonamido)phenyl)-5-(pyridine-2-ylamino)-1H-pyrazole-4-carboxamide], the Kd (RIP3) was > 30 µM, the Kd (RIP1) was > 30 µM and the Kd (MLKL (full length)) was < 0.01 µM.

For Cc1nc(Nc2[nH]nc(-c3ccc(NS(=O)(=O)C(F)F)c(O[C@@H](C)c4ccc(F)cc4)c3)c2C(N)=O)sc1C [Compound 284, (S)-3-(4-((difluoromethyl)sulfonamido)-3-(1-(4-fluorophenyl)ethoxy)phenyl)-5-((4,5-dimethylthiazol-2-yl)amino)-1H-pyrazole-4-carboxamide], the Kd (RIP3) was > 30 µM, the Kd (RIP1) was > 30 µM and the Kd (MLKL (full length)) was < 0.01 µM.

For COc1cnc(Nc2[nH]nc(-c3ccc(NS(=O)(=O)C(F)F)c(OCc4ccc(F)cc4)c3)c2C(N)=O)cn1 [Compound 191, 3-(4-((difluoromethyl)sulfonamido)-3-((4-fluorobenzyl)oxy)phenyl)-5-((5-methoxypyrazin-2-yl)amino)-1H-pyrazole-4-carboxamide], the Kd (RIP3) was > 30 µM, the Kd (RIP1) was > 30 µM and the Kd (MLKL (full length)) was < 0.01 µM.

CCS(=O)(=O)Nc1ccc(-c2n[nH]c(Nc3cc(OC)ccn3)c2C(N)=O)cc1 [Compound 95, 3-(4-(ethylsulfonamido)phenyl)-5-((4-methoxypyridin-2-yl)amino)-1H-pyrazole-4-carboxamide] was tested, and the Kd (RIP3) was 1 to 30 µM, the Kd (RIP1) was > 30 µM and the Kd (MLKL (full length)) was 0.01 to 1 µM.

With Cc1cc(Nc2c(C(N)=O)c(-c3ccc(NS(=O)(=O)C(F)F)c(O[C@@H](C)c4ccc(F)cc4)c3)nn2C)no1 [Compound 320, (S)-3-(4-((difluoromethyl)sulfonamido)-3-(1-(4-fluorophenyl)ethoxy)phenyl)-1-methyl-5-((5-methylisoxazol-3-yl)amino)-1H-pyrazole-4-carboxamide] the Kd (RIP3) was > 30 µM, the Kd (RIP1) was > 30 µM and the Kd (MLKL (full length)) was < 0.01 µM.

In the case of NC(=O)c1c(-c2ccc(NS(=O)(=O)c3ccc(OC(F)(F)F)cc3)cc2)n[nH]c1Nc1cnccn1 [Compound 78, 5-(pyrazin-2-ylamino)-3-(4-((4-(trifluoromethoxy)phenyl)sulfonamido)phenyl)-1H-pyrazole-4-carboxamide], the Kd (RIP3) is reported as > 30 µM, the Kd (RIP1) is reported as > 30 µM and the Kd (MLKL (full length)) is reported as 0.01 to 1 µM.

In the case of C[C@H](Oc1cc(-c2n[nH]c(Nc3cc4n(n3)CCCN(C)C4)c2C(N)=O)ccc1NS(=O)(=O)C(F)F)c1ccc(F)cc1 [Compound 318, (S)-3-(4-((difluoromethyl)sulfonamido)-3-(1-(4-fluorophenyl)ethoxy)phenyl)-5-((5-methyl-5,6,7,8-tetrahydro-4H-pyrazolo[1,5-a][1,4]diazepin-2-yl)amino)-1H-pyrazole-4-carboxamide], the Kd (RIP3) is reported as > 30 µM, the Kd (RIP1) is reported as > 30 µM and the Kd (MLKL (full length)) is reported as < 0.01 µM.

In the case of COCC(C)(C)c1cc(Nc2[nH]nc(-c3ccc(NS(=O)(=O)C(F)F)c(O[C@@H](C)c4ccc(F)cc4)c3)c2C(N)=O)no1 [Compound 288, (S)-3-(4-((difluoromethyl)sulfonamido)-3-(1-(4-fluorophenyl)ethoxy)phenyl)-5-((5-(1-methoxy-2-methylpropan-2-yl)isoxazol-3-yl)amino)-1H-pyrazole-4-carboxamide], the Kd (RIP3) is reported as > 30 µM, the Kd (RIP1) is reported as > 30 µM and the Kd (MLKL (full length)) is reported as < 0.01 µM.

Source: patent US12583836B2 (Anaxis Pharma Pty Ltd, priority 2020, dated 2026)
